These are literature values, as cited in patent US12611425B2, “Compositions and methods for treatment and prevention of pathogens” (WIAB WATER INNOVATION AB, priority 2022, dated 2026).

For the data set the following is noted: cited from earlier work.

Read-outs that look alike come from different tables or passages of the source.

Consider chlorous acid, for which the standard reduction potential entry is recorded as “+0.78” (basic pH) and 1.64 (low pH).
